Reference: ChEMBL document CHEMBL5727219, “Kinase inhibitors and method of treating cancer” (2019)

Sequences of proteins named here, by UniProt entry; tags and fusion partners are left off. A change or cut given only in a name is not applied to a line headed by its entry.
UniProt O00444: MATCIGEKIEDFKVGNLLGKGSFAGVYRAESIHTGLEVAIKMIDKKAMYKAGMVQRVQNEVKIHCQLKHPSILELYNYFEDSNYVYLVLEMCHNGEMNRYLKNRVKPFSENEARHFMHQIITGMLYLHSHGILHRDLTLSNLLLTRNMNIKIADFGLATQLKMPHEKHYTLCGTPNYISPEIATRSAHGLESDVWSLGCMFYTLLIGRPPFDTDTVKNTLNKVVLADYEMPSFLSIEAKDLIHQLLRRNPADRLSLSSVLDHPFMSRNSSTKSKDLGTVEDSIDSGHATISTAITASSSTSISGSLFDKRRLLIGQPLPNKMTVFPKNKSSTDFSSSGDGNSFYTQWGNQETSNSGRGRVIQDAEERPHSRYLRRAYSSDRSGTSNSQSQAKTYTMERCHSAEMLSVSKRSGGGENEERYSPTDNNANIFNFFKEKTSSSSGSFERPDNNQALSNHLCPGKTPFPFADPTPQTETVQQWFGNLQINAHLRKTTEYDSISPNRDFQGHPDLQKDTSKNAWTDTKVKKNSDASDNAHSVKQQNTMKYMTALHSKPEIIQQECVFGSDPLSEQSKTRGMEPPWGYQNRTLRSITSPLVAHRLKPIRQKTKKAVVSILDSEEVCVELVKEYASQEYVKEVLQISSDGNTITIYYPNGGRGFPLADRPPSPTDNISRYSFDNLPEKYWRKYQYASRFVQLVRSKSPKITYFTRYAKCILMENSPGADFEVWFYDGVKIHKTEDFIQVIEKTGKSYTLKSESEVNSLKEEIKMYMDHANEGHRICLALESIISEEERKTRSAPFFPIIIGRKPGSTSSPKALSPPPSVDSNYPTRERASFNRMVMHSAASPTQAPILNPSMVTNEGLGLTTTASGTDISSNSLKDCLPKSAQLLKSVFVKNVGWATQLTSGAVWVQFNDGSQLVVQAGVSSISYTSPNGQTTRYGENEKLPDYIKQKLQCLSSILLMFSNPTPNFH

Target: Serine/threonine-protein kinase PLK4 (Homo sapiens, UniProt O00444)

O=C1Nc2ccccc2[C@@]12C[C@@H]2c1ccc2c(I)n[nH]c2c1
pIC50: 5.70

pIC50: −log10 of the molar value.
